Test system: isolated rat bladder
Details: tested form: L-(+)-tartrate

O=C(NC[C@@H]1[C@H]2CN(Cc3ccccc3)C[C@@H]12)[C@@](O)(c1ccccc1)C1CCCC1 [Compound No. 32, (2S)-(−)(1α,5α,6α)-N-[3-benzyl-3-azabicyclo[3.1.0]hexyl-6-(aminomethyl)-yl]-2-hydroxy-2-cyclopentyl-2-phenyl acetamide]
Kb: 15.8 nM

From patent US20070004791A1, “3,6-disubstituted azabicyclo {3.1.0} hexane derivatives useful as muscarnic receptor antagonists” (priority 2002, published 2007)
